Usually IC50 stands for the point on the concentration scale where inhibition reaches its midpoint.

Amino acid sequences for entries named in this document (tags omitted).
UniProt P25095, whole entry: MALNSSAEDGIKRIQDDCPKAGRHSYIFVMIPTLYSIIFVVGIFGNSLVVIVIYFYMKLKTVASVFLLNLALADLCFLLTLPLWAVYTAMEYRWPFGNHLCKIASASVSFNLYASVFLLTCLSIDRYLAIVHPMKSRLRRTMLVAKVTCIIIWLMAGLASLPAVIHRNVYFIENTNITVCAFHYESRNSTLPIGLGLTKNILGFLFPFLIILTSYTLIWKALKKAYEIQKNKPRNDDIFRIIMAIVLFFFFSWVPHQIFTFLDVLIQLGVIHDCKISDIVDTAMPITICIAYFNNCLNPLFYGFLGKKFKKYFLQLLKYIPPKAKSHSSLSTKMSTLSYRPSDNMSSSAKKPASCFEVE

Experiment [1] deals with T1, AII receptor (Rattus norvegicus, UniProt P25095).
T1 construct: adipose tissue from the epididymal and retroperitoneal depots is quickly excised; from tissue; host or cells: membranes of collagenase-isolated adipocytes from epididymal and retroperitoneal fat of male Sprague-Dawley rats
As to the kind of experiment: Displacement of 125I[Sar,Ile]AII binding in rat epididymal fat cell membranes. As to conditions: 1 nM radioligand, 1-4 assays, read-out: Inhibitory Constants (IC50) for displacement of 125I[Sar,Ile]AII binding, Epididymal. From the text:
(§1) The experimental design involves determining the binding characteristics of adipocyte membranes harvested from two different anatomic sites at three different ages. Male Sprague-Dawley rats (Charles River Laboratories, Wilmington, Mass.) are used at 40, 70 and 100 days of age. Rats are killed by carbon dioxide inhalation on the morning of the experiment, and adipose tissue from the epididymal and retroperitoneal depots is quickly excised and placed in cold saline. The spermatic artery and vein are removed from the epididymal fat, and brown fat deposits are dissected away from the retroperitoneal depot. […] Protein content of the high speed pellet is determined, the resuspended protein is either assayed immediately or stored at -75° before binding assays are performed. […] Separation of bound from free radioactivity is achieved using any appropriate filtration apparatus. […] The filters are placed in tubes, and radioactivity measured in a gamma scintillation counter programmed to correct for the half-life of the isotope. Using this experimental protocol, both the affinity (KD) and number of binding sites (Bmax) for angiotensin II on the adipocyte membrane can be calculated. The relative affinities of different anatomically distinct adipocyte membranes for a variety of peptide and nonpeptide antagonists can also be determined. […]
For orientation: Loss of bound radioactivity is the signal in a displacement assay; it reports binding, not function.

Experiment [2] deals with T1, AII receptor. As to the kind of experiment: Displacement of 125I[Sar,Ile]AII binding in rat retroperitoneal fat cell membranes. As to conditions: 1 nM radioligand, 1-4 assays, read-out: Inhibitory Constants (IC50) for displacement of 125I[Sar,Ile]AII binding, Retroperitoneal.
Description: as §1

Turning to Sar^1-Ala^8 AII [reference compound], the IC50 on AII receptor [1] amounted to 4.31 nM; at AII receptor [2] it was 2.63 nM.

The values are drawn from patent US5830909A, “Angiotensin (AII) antagonists as inhibitors of the growth of adipose tissue” (American Cyanamid Company, priority 1996, dated 1998).
